Laboratory results published in ChEMBL document CHEMBL4371007, “Biased Ligands of G Protein-Coupled Receptors (GPCRs): Structure-Functional Selectivity Relationships (SFSRs) and Therapeutic Potential” (J Med Chem, 2018).

How the values were obtained:
[1] = target: T1, Nociceptin receptor (Homo sapiens, UniProt P41146); test: Agonist activity at human NOPR expressed in human BHK cells assessed as inhibition of forskolin-mediated cAMP accumulation after 10 mins by radioimmuno assay
[2] = target: T1, Nociceptin receptor; test: Agonist activity at YFP-fused human NOPR expressed in HEK293 cells assessed as inhibition of forskolin-mediated cAMP accumulation measured immediately by luminescence assay
[3] = target: T2, Kappa-type opioid receptor (Homo sapiens, UniProt P41145); test: Agonist activity at kappa opioid receptor (unknown origin) assessed as increase in venus-tagged N-terminal beta-arrestin-2 recruitment by BRET assay
[4] = target: T2, Kappa-type opioid receptor; test: Agonist activity at kappa opioid receptor (unknown origin) expressed in HEK cells co-expressing luciferase based cAMP biosensor assessed as increase in cAMP accumulation after 20 to 30 mins by luciferase reporter gene assay

Compound `COC(=O)CN1CN(c2ccccc2)C2(CCN(Cc3cccc4ccccc34)CC2)C1=O` has a pEC50 [1] of 7.58.
`CCn1c(=O)n([C@@H]2CCN(CC3CCCC4CCCCC43)C[C@H]2CO)c2ccccc21` (stereo not given in full) was tested, and the pEC50 [2] was 7.14.
In the case of `COC(=O)[C@@H]1C[C@H](OC(=O)CSC#N)C(=O)[C@H]2[C@@]1(C)CC[C@H]1C(=O)O[C@H](c3ccoc3)C[C@]21C`, the EC50 [3] is reported as 1130 nM and the EC50 [4] is reported as 5.2 nM.
For `CCn1c(=O)n([C@@H]2CCN(C3CCC(C(C)C)CC3)C[C@H]2CO)c2ccccc21` (stereo not given in full), the pEC50 [2] was 8.14.
